Results published in PubChem BioAssay AID624287 (National Center for Advancing Translational Sciences (NCATS), 2012).
Only a part is listed here, and it is no random draw. Records with an inconclusive call do not appear. Active and inactive are the calls of the source. Calls come from the whole dose curve; as a rule, active = well fitted activation curve with a large enough effect; inconclusive = small, poorly fitted or top-dose-only effect, or another doubt; inactive = no such curve, though single readings can be large or run the other way; cell line not stated here.

assay: qHTS for Agonist of gsp, the Etiologic Mutation Responsible for Fibrous Dysplasia/McCune-Albright Syndrome: qHTS; conditions: gsp mutant cells, cAMP HTRF, 30 min; at 76.9 µM (top of the series) unless noted;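 note: phosphodiesterase inhibitor Ro 20-1724 added with compounds to block cAMP breakdown; nearly all actives have a fitted effect of over 60% in size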

SMILES | activation (cAMP increase)
CCCC1OP(N)(=O)OCC1CC (centres undefined) | inactive: 15.5%
O=C(O)c1ccccc1[As](=O)(O)O | inactive: -9.22% [at 15.4 µM]
CC(=O)Nc1ccc([As](=O)(O)O)cc1 | inactive: -1.7% [at 15.4 µM]
CN(C)P(=O)(N(C)C)n1c(Nc2ccccc2)nnc1-c1ccccc1 | inactive: -87.6%
Cc1cc(C)cc(OP(C)(=O)Nc2cccc(C(F)(F)F)c2)c1 (centres undefined) | inactive: -10.7% [at 15.4 µM]
O=P(Nc1nc2ccc(Cl)cc2s1)(c1ccccc1)c1ccccc1 | inactive: 26.1% [at 15.4 µM]
Cc1ccc(NP(=O)(Oc2ccccc2F)Oc2ccccc2F)nc1 | inactive: -1.81% [at 15.4 µM]
COc1ccccc1OP(C)(=O)Nc1ccc(C)c(C)c1 (centres undefined) | inactive: 27.4%
CCOP(=O)(Nc1ccccc1)OCC | inactive: 0%
Cc1cc(SC(NC(=O)c2ccc(F)cc2)C(Cl)(Cl)Cl)ncn1 (centres undefined) | inactive: 4.27%
COc1ccc(OP(C)(=O)Nc2ccccc2Br)cc1 (centres undefined) | inactive: -7.11% [at 15.4 µM]
O=[N+]([O-])c1cc([N+](=O)[O-])c(Nc2ccccn2)c([N+](=O)[O-])c1 | inactive: -3.21% [at 15.4 µM]
CC(C)CC(=O)NC(Sc1ccc(Cl)cc1)C(Cl)(Cl)Cl (centres undefined) | inactive: -29.4%
Nc1cc(N)c2nonc2c1[N+](=O)[O-] | inactive: -3.36% [at 15.4 µM]
O=C(NC(Sc1ccncn1)C(Cl)(Cl)Cl)c1ccccc1 (centres undefined) | inactive: -23.9% [at 15.4 µM]
Oc1ccccc1CNc1ccccn1 | inactive: 10.8%
COc1ccccc1OP(C)(=O)Nc1ccc(C)cc1C (centres undefined) | inactive: 4.5%
CP(=O)(Nc1ccccn1)Oc1ccccc1 (centres undefined) | inactive: 13.1%
CCc1ccc(OP(C)(=O)O)cc1 | inactive: -55.4%
NC(=O)c1cc([N+](=O)[O-])cc([N+](=O)[O-])c1N | inactive: -23.8%

SMILES | activation (cAMP increase)
Cc1ccc(N/C(=N/P(=O)(N2CCOCC2)N2CCOCC2)N2CCOCC2)cc1 | inactive: 0.82% [at 15.4 µM]
COc1ccccc1OP(C)(=O)Nc1ccc(Br)cc1 (centres undefined) | inactive: 21.6% [at 15.4 µM]
Cc1ccc(OP(=O)(Nc2nccs2)Oc2ccc(C)cc2)cc1 | inactive: -9.27% [at 15.4 µM]
COc1ccc(OP(C)(=O)Nc2ccccn2)cc1 (centres undefined) | inactive: -2.65%
COc1ccccc1OP(=O)(Nc1ccc(C)cn1)Oc1ccccc1OC | inactive: 3.46% [at 15.4 µM]
CN(C)CCOC(=O)C(O)(c1ccccc1)C1CCCC1 (centres undefined) | inactive: -24.2%
Clc1ccc(Cl)c(NC2=NCC(CBr)S2)c1 (centres undefined) | inactive: 2.07% [at 15.4 µM]
CN1CCCC(OC(=O)C(c2ccccc2)c2ccccc2)C1 (centres undefined) | inactive: 3.06%
COC(=O)C1(C)COP(=O)(NCc2ccccc2)OC1 (centres undefined) | inactive: -96.9%
N#C/C(=C\c1ccc(N(CCBr)CCBr)cc1)C(N)=O | inactive: -53.6%
CC(=O)c1ccc(N2CC2c2ccncc2)cc1 (centres undefined) | inactive: 13.6%
C[C@H]1OP(=O)(Oc2ccccc2)C[C@@H]2O[C@@H]21 (some centres undefined) | inactive: -37.8%
O=C(OCCN1CCN(CCOCc2ccccc2)CC1)C(O)(c1ccccc1)c1ccccc1 | inactive: -1.37%
Cc1ccccc1CN(C)C(=O)COC(=O)C(O)(c1ccccc1)c1ccccc1 | inactive: 3.61%
CC(=O)Nc1ccc(Oc2c([N+](=O)[O-])cc([N+](=O)[O-])cc2[N+](=O)[O-])cc1 | inactive: -28.9%
CC(=O)Nc1ccc([As](=O)(O)O)c(O)c1 | inactive: 3.94% [at 15.4 µM]
CCOc1ccc(C2=NCC(CBr)S2)cc1 (centres undefined) | inactive: 1.03%
O=P1(Nc2nc3ccc(Cl)cc3s2)COc2ccccc2O1 (centres undefined) | inactive: -29.1%
CP(=O)(Nc1ccccc1F)Oc1ccccc1 (centres undefined) | inactive: 19.8%
CCc1cc(O)c([N+](=O)[O-])c(C)c1[N+](=O)[O-] | inactive: 2.14% [at 15.4 µM]

SMILES | activation (cAMP increase)
CC(C)c1ccc(OP(C)(=O)Nc2ccc(SC(F)(F)F)cc2)cc1 (centres undefined) | inactive: 0.764%
CC(C)(C)C(=O)NC(Sc1ccccc1)C(Cl)(Cl)Cl (centres undefined) | inactive: -2.17% [at 15.4 µM]
CC(=O)NC(SC(=S)N(CC(C)C)CC(C)C)C(Cl)(Cl)Cl (centres undefined) | inactive: -22.4%
Cc1ccc(OP(=O)(Nc2ccccn2)Oc2ccc(C)cc2)cc1 | inactive: 9.1% [at 15.4 µM]
COC(=O)c1cc2c(s1)N=C(c1ccccc1)N(C)P2(=O)N1CCOCC1 (centres undefined) | inactive: -10.9%
Cc1c([N+](=O)[O-])cc([N+](=O)[O-])c(Br)c1[N+](=O)[O-] | inactive: -4.37% [at 15.4 µM]
CCC(=O)N1C2C3N(C(=O)CC)C1C1N(C(=O)CC)C(C(N1C(=O)CC)N3C(=O)CC)N2C(=O)CC | inactive: 18.4%
CCN(CC)CCCOC(=O)C(O)(c1ccccc1)C1CCCCC1 (centres undefined) | inactive: 27.8%
O=C(OC1CN2CCC1CC2)c1ccccc1 (centres undefined) | inactive: 2.27% [at 15.4 µM]
CP(=O)(Nc1ccccc1)Oc1ccc(F)cc1 (centres undefined) | inactive: 6.35%
CN(C)C(=O)Oc1noc2ccccc12 | inactive: 18.5% [at 15.4 µM]
O=c1c2cc([N+](=O)[O-])ccc2[nH]c2c([N+](=O)[O-])cc([N+](=O)[O-])cc12 | inactive: -22.3%
CCCCCOc1ccc(NP(C)(=O)Oc2ccc(Cl)cc2Cl)cc1 (centres undefined) | inactive: 26.1%
Cc1ccccc1OP(=O)(Nc1ccccn1)Oc1ccccc1C | inactive: 0.89% [at 15.4 µM]
CC(NC(=O)COC(=O)C(O)(c1ccccc1)c1ccccc1)c1ccccc1 (centres undefined) | inactive: -99.7%
O=C(NC1CCS(=O)(=O)C1)NP(=S)(Oc1ccccc1)Oc1ccccc1 (centres undefined) | inactive: -17.4% [at 15.4 µM]
CCNC(=S)/N=C(\N)N[N+](=O)[O-] | inactive: -0.266%
Cc1ccc(NP(=O)(Oc2cccc(C)c2)Oc2cccc(C)c2)nc1 | inactive: -3.88% [at 15.4 µM]
c1ccc(-c2nn[nH]n2)c(-c2nn[nH]n2)c1 | inactive: 0.653% [at 15.4 µM]
